Test results from PubChem BioAssay AID602393 (Broad Institute, 2012).
This is a selection; strong and weak results do not stand in their true shares. Some structures show a salt or complex split into parts, the way the source records it. Activity calls are given as the source filed them. Rule as the data show it: active = activation above about 40%; inconclusive = no clear call, values can overlap the other calls; inactive = below that.

Assay: raisers of Bmi1 knock-in reporter signal – mouse ES cells, Bmi1 luciferase knock-in, single point, esBAF inhibitor project, primary screen (AID 602393);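 also: 0% = median of the plate's neutral control wells and 100% = double that signal; a rise in the Bmi1 reporter signal indicates esBAF inhibition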
Details: 24 h, at 12.5 µM, stronger effect = higher value, 100% = twice the neutral-well signal

| Structure (SMILES) | reporter increase |
| --- | --- |
| CN(Cc1cccnc1)C(=O)COc1ccc(Cl)c(Cl)c1.O=[N+]([O-])c1cc([N+](=O)[O-])c(O)c([N+](=O)[O-])c1 | inactive: -7.04% |
| O=[N+]([O-])c1cc([N+](=O)[O-])c(-n2nnc3ccccc32)c([N+](=O)[O-])c1 | inactive: -4.2% |
| Cc1nc2ccc3ccccc3c2s1.O=[N+]([O-])c1cc([N+](=O)[O-])c(O)c([N+](=O)[O-])c1 | inactive: 16.9% |
| O=[N+]([O-])c1cc([N+](=O)[O-])c(Nc2nnnn2CCO)c([N+](=O)[O-])c1 | inactive: 6.9% |
| CC1=C2N=C(C=C3N=C(C(C)=C4[N-][C@@](C)([C@@H]5N=C1[C@](C)(CCC(=O)NC[C@@H](C)OP(=O)([O-])O[C@H]1[C@@H](O)[C@@H](n6cnc7cc(C)c(C)cc76)O[C@@H]1CO)[C@H]5CC(N)=O)[C@@](C)(CC(N)=O)[C@@H]4CCC(N)=O)[C@@](C)(CC(N)=O)[C@@H]3CCC(N)=O)C(C)(C)[C@@H]2CCC(N)=O.[C-]#N.[Co+3] | inactive: -17.3% |
| CCCOc1ccc(NP(C)(=O)Oc2ccc(Cl)cc2)cc1 (stereo not given) | inactive: -3.94% |
| CN1CCCCC1COC(=O)C1(O)c2ccccc2CCc2ccccc21 (stereo not given) | inactive: 11.2% |
| COc1ccccc1OP(C)(=O)Nc1c(C)cccc1C (stereo not given) | inactive: -6.87% |
| O=C(O)c1cccc(Nc2c([N+](=O)[O-])cc([N+](=O)[O-])cc2[N+](=O)[O-])c1 | inactive: -9.87% |
| CC1=NCCc2c1[nH]c1ccccc21.O=[N+]([O-])c1cc([N+](=O)[O-])c(O)c([N+](=O)[O-])c1 | inactive: -5.05% |
| Cc1cc(C)cc(OP(C)(=O)Nc2ccc(C)cc2C)c1 (stereo not given) | inactive: 4.64% |
| COc1ccccc1OP(C)(=O)Nc1cccc(Br)c1 (stereo not given) | inactive: 2.8% |
| Cc1ccc(C)c(NP(C)(=O)Oc2ccccc2)c1 (stereo not given) | inactive: -3.25% |
| Cc1cc(C)cc(OP(C)(=O)Nc2ccccn2)c1 (stereo not given) | inactive: -1.58% |
| O=[N+]([O-])c1cc([N+](=O)[O-])c(Nc2cccnc2)c([N+](=O)[O-])c1 | inactive: -2.84% |
| Cc1cc(C)cc(OP(C)(N)=O)c1 (stereo not given) | inactive: -4.11% |
| COc1ccccc1OP(C)(=O)Nc1cc(Cl)ccc1C (stereo not given) | inactive: -6.4% |
| COc1ccc(OP(C)(=O)Nc2cccc(F)c2)cc1 (stereo not given) | inactive: -17.2% |
| Cc1ccc(NP(C)(=O)Oc2ccccc2)c(C)c1 (stereo not given) | inactive: -1.99% |
| CCOC(=O)c1ccc(NP(C)(=O)Oc2ccccc2)cc1 (stereo not given) | inactive: -3.94% |

| Structure (SMILES) | reporter increase |
| --- | --- |
| CP(=S)(Nn1cnnc1)Oc1ccccc1 (stereo not given) | inactive: -4.34% |
| CP(=O)(NC(=O)Nc1ccccc1)Oc1ccccc1 (stereo not given) | inactive: 6.09% |
| Cc1ccc(Nc2c([N+](=O)[O-])cc([N+](=O)[O-])cc2[N+](=O)[O-])cc1 | inactive: -9.44% |
| CP(=O)(Oc1ccccc1)OC(c1ccccc1)C(F)(F)F (stereo not given) | inactive: 0.968% |
| CP(=O)(Nc1ccccn1)Oc1ccc(Cl)cc1 (stereo not given) | inactive: 7.68% |
| CCOP(C)(=S)SCC(=O)NC(C)C(=O)O (stereo not given) | inactive: -1.57% |
| COc1ccccc1OP(C)(=O)Nc1c(C)n(C)n(-c2ccccc2)c1=O (stereo not given) | inactive: -5.75% |
| O=C(OCCCN1CCCC1)C(O)(c1ccccc1)C1CCCCC1 (stereo not given) | inactive: -4.9% |
| CP(=O)(Oc1ccccc1)N1CCOC1=O (stereo not given) | inactive: 4.16% |
| CCc1ccc(OP(C)(=O)Nc2cccnc2)cc1 (stereo not given) | inactive: -8.39% |
| COc1ccc(OP(C)(=O)Nc2ccc(Br)cc2)cc1 (stereo not given) | inactive: -4.57% |
| CC(C)(C)c1ccc(OP(C)(=O)O)cc1 | inactive: -1.92% |
| COc1ccccc1OP(C)(=O)Nc1ccccc1Br (stereo not given) | inactive: -6.4% |
| CP(=O)(Nc1ccc(Cl)cc1)Oc1ccc(F)cc1 (stereo not given) | inactive: -5.17% |
| CP(=O)(OC12CC3CC(CC(C3)C1)C2)OC12CC3CC(CC(C3)C1)C2 | inactive: 1.76% |
| COc1ccccc1OP(C)(=O)Nc1ccc(C)c(C)c1 (stereo not given) | inactive: 1.71% |
| CP(=O)(Nc1ccc(Cl)cc1Cl)Oc1ccccc1 (stereo not given) | inactive: 1.62% |
| COc1ccc(OP(C)(=O)Nc2ccccn2)cc1 (stereo not given) | inactive: -0.799% |
| CN(C)CCOC(=O)C(O)(c1ccccc1)C1CCCC1 (stereo not given) | inactive: -7.18% |
| COc1ccccc1OP(C)(=O)Nc1ccc(Br)cc1 (stereo not given) | inactive: -1.73% |

| Structure (SMILES) | reporter increase |
| --- | --- |
| CP(=O)(Nc1ccccn1)Oc1ccccc1 (stereo not given) | inactive: -6.41% |
| COc1ccccc1OP(C)(=O)Nc1ccc(C)cc1C (stereo not given) | inactive: -1.1% |
| CCc1ccc(OP(C)(=O)O)cc1 | inactive: -5.6% |
| O=[N+]([O-])c1cc([N+](=O)[O-])c(Nc2ccccn2)c([N+](=O)[O-])c1 | inactive: -9.36% |
| Cc1c(NP(C)(=O)Oc2ccc(C(C)C)cc2)c(=O)n(-c2ccccc2)n1C (stereo not given) | inactive: -2.64% |
| CP(=O)(Nc1ccccc1F)Oc1ccccc1 (stereo not given) | inactive: 0.347% |
| O=[N+]([O-])c1cc([N+](=O)[O-])c(Nc2ccc(Cl)cc2)c([N+](=O)[O-])c1 | inactive: -30.7% |
| COc1ccc2c(c1O)-c1c(O)c(OC)cc3c1[C@H](C2)[N+](C)(C)CC3.O=[N+]([O-])c1cc([N+](=O)[O-])c([O-])c([N+](=O)[O-])c1[O-] | inactive: 11.6% |
| CP(=O)(Nc1ccccc1)Oc1ccc(F)cc1 (stereo not given) | inactive: -7.2% |
| O=[N+]([O-])c1cc([N+](=O)[O-])c(OC2CCCCC2O)c([N+](=O)[O-])c1 (stereo not given) | inactive: 8.17% |
| Cc1c([N+](=O)[O-])cc([N+](=O)[O-])c(Br)c1[N+](=O)[O-] | inactive: -0.0075% |
| COc1ccc(NP(C)(=O)Oc2ccccc2OC)cc1 (stereo not given) | inactive: 3.77% |
| COc1ccc(OP(C)(=O)Nc2cccc(Br)c2)cc1 (stereo not given) | inactive: 11.7% |
| Cc1c(C(c2ccc3c(c2)OCO3)c2c(C)n(C)n(-c3ccccc3)c2=O)c(=O)n(-c2ccccc2)n1C.O=[N+]([O-])c1cc([N+](=O)[O-])c(O)c([N+](=O)[O-])c1 | inactive: -4.08% |
| O=[N+]([O-])c1ccc(OP2(=O)COCCO2)cc1 (stereo not given) | inactive: -3.75% |
| Cc1cc(-c2cccc3ccccc23)c(C)cn1.O=[N+]([O-])c1cc([N+](=O)[O-])c(O)c([N+](=O)[O-])c1 | inactive: 9.32% |
| CCOP(C)(=S)SCC(=O)NC(C)(CC)C(=O)O (stereo not given) | inactive: -2.9% |
| CP(=O)(Nc1ccc(SC(F)(F)F)cc1)Oc1ccc(F)cc1 (stereo not given) | inactive: 5.31% |
| Cc1ccccc1NP(C)(=O)Nc1ccccc1C | inactive: -0.662% |
| CP(=O)(Nc1ccc2c(c1)OCCO2)Oc1ccccc1 (stereo not given) | inactive: -1.51% |
